Protein sequences, listed by entry. Tags and fused reporters are not part of them. Lines headed by an entry give the natural chain unless they say otherwise; changes in a name come on top.
UniProt P07480: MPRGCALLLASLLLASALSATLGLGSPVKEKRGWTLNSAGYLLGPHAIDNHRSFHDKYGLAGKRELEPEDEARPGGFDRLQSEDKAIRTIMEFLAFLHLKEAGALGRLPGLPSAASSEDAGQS

According to patent publication US20030082641A1 (SYNAPTIC PHARMACEUTICAL, published 2003):

Key:
human GALR3 receptor [1] = target: T1, human GALR3 receptor (human, UniProt O60755 1-368); assay: displacement of porcine 125I-galanin; human GALR3 in LMTK- #8
T1 sequence: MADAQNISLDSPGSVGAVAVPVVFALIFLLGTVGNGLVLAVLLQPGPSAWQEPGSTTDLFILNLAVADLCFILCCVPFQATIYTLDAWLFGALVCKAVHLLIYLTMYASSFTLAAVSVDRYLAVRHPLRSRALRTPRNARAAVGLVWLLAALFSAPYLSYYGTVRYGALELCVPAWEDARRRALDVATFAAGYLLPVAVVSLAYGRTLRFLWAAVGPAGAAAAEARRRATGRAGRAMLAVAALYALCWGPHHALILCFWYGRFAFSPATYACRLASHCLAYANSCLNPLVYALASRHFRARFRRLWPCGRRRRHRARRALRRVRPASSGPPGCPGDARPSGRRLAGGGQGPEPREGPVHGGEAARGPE

human GALR3 receptor [2] = target: T1, human GALR3 receptor; assay: displacement of porcine 125I-galanin; COS-7 membranes, transient
rat GALR3 receptor [3] = target: T2, rat GALR3 receptor (rat, UniProt O88626 1-370); assay: displacement of porcine 125I-galanin; 293-rGalR3-105 membranes, stable
T2 construct: also called rGALR3; rGalR3
T2 chain: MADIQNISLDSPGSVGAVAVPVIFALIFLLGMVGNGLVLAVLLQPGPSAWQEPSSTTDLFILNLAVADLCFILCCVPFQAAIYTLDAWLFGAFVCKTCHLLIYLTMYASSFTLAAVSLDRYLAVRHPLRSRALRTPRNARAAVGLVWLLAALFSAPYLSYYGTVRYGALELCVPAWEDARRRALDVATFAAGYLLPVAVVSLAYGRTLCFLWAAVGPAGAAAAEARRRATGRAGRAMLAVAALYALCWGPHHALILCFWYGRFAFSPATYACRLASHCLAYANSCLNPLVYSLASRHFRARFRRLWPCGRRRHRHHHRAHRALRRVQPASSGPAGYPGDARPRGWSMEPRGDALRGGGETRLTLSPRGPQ

rat GALR3 receptor [4] = target: T2, rat GALR3 receptor; assay: displacement of porcine 125I-galanin; rat GALR3 in 293 #105
human GALR3 receptor [5] = target: T1, human GALR3 receptor; assay: cell-based or functional assay
human GALR3 receptor [6] = target: T1, human GALR3 receptor; assay: cell-based or functional assay; remark: listed apart in the source
human GALR3 receptor [7] = target: T1, human GALR3 receptor; assay: saturation binding, membranes of stable L-hGalR3-228 LM(tk-) cells

“(3-iodo-L-Tyr9)-(3-iodo-L-Tyr26)-galanin (peptide)” was tested, and the Ki (human GALR3 receptor [1]) was 1.43 nM.

In the case of M35 (peptide), the Ki (human GALR3 receptor [2]) is reported as 19 nM.

Work on galantide (peptide) yielded a Ki (rat GALR3 receptor [3]) of 7.6 nM and a Ki (rat GALR3 receptor [4]) of 11.5 nM.

GWTLNSAGYLLGPHAIDNHRSFHDKYGLA (peptide, UniProt P07480 33-61, looked up) [porcine galanin] was tested, and the “Oocyte EC50, stimulation of GIRKs” value (human GALR3 receptor [5]) was 222 nM.

For GWTLNSAGYLLGPHAVGNHRSFSDKNGLTS (peptide, UniProt P22466 33-62, looked up) [Human galanin], the “EC50, GIRK” value (human GALR3 receptor [6]) was 7340 nM.

For GWTLNSAGYLLGPHAIDNHRSFHDKYGLA (peptide, UniProt P07480 33-61, looked up, 125I label (position not given)) [porcine ^125I-galanin], the Kd (human GALR3 receptor [7]) was 2.57 nM.
